Experiment [1] has as its target T1, VEGF receptor tyrosine kinase-2 (Homo sapiens, UniProt P35968).
T1 construct: GST; made in house; host or cells: baculovirus-infected insect cells (Sf9)
Put plainly: VEGF receptor-2 kinase assay (Assay 3). The class given is biochemical. The settings on record: 8 μM ATP, poly-(Glu4Tyr) substrate; read-out: VEGF-R2 (Assay 3) Concentration for 50% inhibition of enzyme activity, IC50. As for the experimental part: 10.3 Assay 3: VEGF Receptor-2 Kinase Assay
Recombinant VEGF receptor tyrosine kinase-2 was purified as GST fusion protein from baculovirus-infected insect cells (Sf9). Poly-(Glu4Tyr), used as kinase substrate, was purchased from the company Sigma.
VEGF receptor tyrosine kinase (90 ng/measuring point) was incubated for 10 min at 22° C. in the presence of various concentrations of test substances (0 μM, and within the range 0.001-30 μM) in 30 μl assay buffer [40 mM Tris/HCl pH5.5, 10 mM MgCl2, 1 mM MnCl2, 3 μM Na ortho-vanadate, 1.0 mM dithiothreitol, 8 μM adenosine triphosphate (ATP), 0.96 μg/measuring point poly-(Glu4Tyr), 0.2 μCi/measuring point ^33P-gamma ATP, 1.4% dimethylsulfoxide]. The reaction was stopped by adding EDTA solution (250 mM, pH8.0, 15 μl/measuring point).
From each reaction mixture, 15 μl was applied to P30 filter strips (from Wallac), and unincorporated ^33P-ATP was removed by washing the filter strips three times, for 10 min each time, in 0.5% phosphoric acid. […] The amount of incorporated ^33P (substrate phosphorylation) was determined by scintillation measurement in a gamma-radiation measuring instrument (Wallac). […] The IC50 values were determined by means of a 4-parameter fit using the company's own software.

By UniProt entry, the sequences of proteins in these tests, tags left out. Residues count along the entry.
UniProt P35968, 20-1356: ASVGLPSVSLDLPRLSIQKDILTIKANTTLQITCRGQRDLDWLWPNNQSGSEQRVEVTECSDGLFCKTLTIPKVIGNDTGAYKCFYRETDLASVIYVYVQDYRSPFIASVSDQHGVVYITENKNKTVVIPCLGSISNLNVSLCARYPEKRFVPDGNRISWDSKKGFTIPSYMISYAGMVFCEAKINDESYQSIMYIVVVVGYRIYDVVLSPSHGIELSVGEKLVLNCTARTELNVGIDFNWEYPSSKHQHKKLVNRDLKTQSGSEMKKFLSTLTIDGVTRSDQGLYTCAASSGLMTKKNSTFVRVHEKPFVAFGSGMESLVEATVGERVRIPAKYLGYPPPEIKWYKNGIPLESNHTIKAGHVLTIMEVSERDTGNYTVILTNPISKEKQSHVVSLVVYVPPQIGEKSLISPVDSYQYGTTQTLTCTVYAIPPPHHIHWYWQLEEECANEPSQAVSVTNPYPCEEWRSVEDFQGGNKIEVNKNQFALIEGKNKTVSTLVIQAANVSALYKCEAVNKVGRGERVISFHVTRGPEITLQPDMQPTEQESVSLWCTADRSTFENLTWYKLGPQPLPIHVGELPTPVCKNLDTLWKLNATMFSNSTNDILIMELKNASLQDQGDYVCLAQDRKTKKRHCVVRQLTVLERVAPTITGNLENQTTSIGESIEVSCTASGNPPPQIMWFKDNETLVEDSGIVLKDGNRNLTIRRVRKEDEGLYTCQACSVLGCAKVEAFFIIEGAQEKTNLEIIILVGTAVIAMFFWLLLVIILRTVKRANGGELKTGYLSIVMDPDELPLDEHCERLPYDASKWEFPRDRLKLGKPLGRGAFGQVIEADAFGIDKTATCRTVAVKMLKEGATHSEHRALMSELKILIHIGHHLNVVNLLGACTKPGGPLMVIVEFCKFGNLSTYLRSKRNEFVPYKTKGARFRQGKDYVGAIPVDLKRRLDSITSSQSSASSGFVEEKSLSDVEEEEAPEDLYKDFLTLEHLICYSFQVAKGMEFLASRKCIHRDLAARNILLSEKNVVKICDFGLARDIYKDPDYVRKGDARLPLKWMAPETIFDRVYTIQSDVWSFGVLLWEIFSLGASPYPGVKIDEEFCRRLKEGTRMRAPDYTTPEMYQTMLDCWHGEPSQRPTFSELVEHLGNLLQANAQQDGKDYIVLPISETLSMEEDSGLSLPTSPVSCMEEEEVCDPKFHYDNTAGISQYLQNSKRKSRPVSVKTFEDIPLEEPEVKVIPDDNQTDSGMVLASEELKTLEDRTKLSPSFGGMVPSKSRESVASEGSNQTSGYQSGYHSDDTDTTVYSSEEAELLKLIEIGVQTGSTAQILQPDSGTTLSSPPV

Another experiment has as its target T2, CDK2/CycE (Homo sapiens, UniProt P24941).
T2 construct: purchased ProQinase GmbH, Freiburg; host or cells: baculovirus-infected insect cells (Sf9)
Put plainly: CDK2/CycE kinase assay (Assay 2). Format: biochemical. The settings on record: 0.5 μM ATP, histon IIIS substrate; read-out: CDK2/CycE (Assay 2) Concentration for 50% inhibition of enzyme activity, IC50. As for the experimental part:
10.2 Assay 2: CDK2/CycE Kinase Assay
Recombinant CDK2 and CycE-GST fusion proteins, purified from baculovirus-infected insect cells (Sf9), were purchased from ProQinase GmbH, Freiburg. Histon IIIS, used as kinase substrate, was purchased from the company Sigma. CDK2/CycE (50 ng/measuring point) was incubated for 10 min at 22° C. in the presence of various concentrations of test substances (0 μM, and within the range 0.01-100 μM) in assay buffer [50 mM Tris/HCl pH8.0, 10 mM MgCl2, 0.1 mM Na ortho-vanadate, 1.0 mM dithiothreitol, 0.5 μM adenosine triphosphate (ATP), 10 μg/measuring point histon IIIS, 0.2 μCi/measuring point ^33P-gamma ATP, 0.05% NP40, 1.25% dimethylsulfoxide]. The reaction was stopped by adding EDTA solution (250 mM, pH8.0, 15 μl/measuring point).
From each reaction mixture, 15 μl was applied to P30 filter strips (from Wallac), and unincorporated ^33P-ATP was removed by washing the filter strips three times, for 10 min each time, in 0.5% phosphoric acid. After drying the filter strips for 1 hour at 70° C., the filter strips were covered with scintillator strips (MeltiLex™ A, from Wallac) and stoved for 1 hour at 90° C. The amount of incorporated ^33P (substrate phosphorylation) was determined by scintillation measurement in a gamma-radiation measuring instrument (Wallac). […] The IC50 values were determined by means of a 4-parameter fit using the company's own software.

On to `C[C@@H](Nc1nc(Nc2ccc([S@](=N)(=O)C3CC3)cc2)ncc1Br)C(C)(C)O` [Example V11, (R)-S-[4-({5-bromo-4-[(R)-(2-hydroxy-1,2-dimethylpropyl)amino]pyrimidin-2-yl}amino)phenyl]-S-cyclopropyl-sulfoximide], for which, in experiment [1], the IC50 came to 59 nM.
`C[C@@H](O)[C@@H](C)Oc1nc(Nc2ccc(S(C)(=N)=O)cc2)ncc1Br` (some centres unmarked) [Example V13]: the IC50 on CDK2/CycE was found to be 4 nM.

(Values after US8735412B2, “Sulfoximine-substituted anilinopyrimidine derivatives as CDK inhibitors, the production thereof, and use as medicine” (Bayer Intellectual Property GmbH, priority 2008, dated 2014).)
